According to patent US20220331442A1, “ANTIBODY-BIOMOLECULE CONJUGATES LINKED THROUGH MULTIFUNCTIONAL MACROMOLECULE AND USES THEREOF” (LEVIM BIOTECH LLP, priority 2018, published 2022):

Tested on: H23 NSCLC cells
Test: MTT cytotoxicity assay

In the case of “cetuximab: monoclonal antibody used as the targeting moiety for human epidermal growth factor receptor (EGFR)”, the “Cytotoxicity (MTT)” value (0.5 μM test substance, presence of siRNA and gefitinib 0, 0.1, 0.5, 1 and 5 μM, FIG. 21(a)) is reported as “negligible toxicity” and the “Cytotoxicity (MTT)” value (absence of siRNA and TKI (gefitinib), FIG. 18) is reported as “negligible toxicity”.
